# Laboratory results: PMC7822063, “Analogues of 2′-hydroxychalcone with modified C4-substituents as the inhibitors against human acetylcholinesterase” (Journal of Enzyme Inhibition and Medicinal Chemistry, 2020)
# Protein sequences, listed by entry. Tags and fused reporters are not part of them. Residues count along the entry.
# UniProt P22303, 32-614: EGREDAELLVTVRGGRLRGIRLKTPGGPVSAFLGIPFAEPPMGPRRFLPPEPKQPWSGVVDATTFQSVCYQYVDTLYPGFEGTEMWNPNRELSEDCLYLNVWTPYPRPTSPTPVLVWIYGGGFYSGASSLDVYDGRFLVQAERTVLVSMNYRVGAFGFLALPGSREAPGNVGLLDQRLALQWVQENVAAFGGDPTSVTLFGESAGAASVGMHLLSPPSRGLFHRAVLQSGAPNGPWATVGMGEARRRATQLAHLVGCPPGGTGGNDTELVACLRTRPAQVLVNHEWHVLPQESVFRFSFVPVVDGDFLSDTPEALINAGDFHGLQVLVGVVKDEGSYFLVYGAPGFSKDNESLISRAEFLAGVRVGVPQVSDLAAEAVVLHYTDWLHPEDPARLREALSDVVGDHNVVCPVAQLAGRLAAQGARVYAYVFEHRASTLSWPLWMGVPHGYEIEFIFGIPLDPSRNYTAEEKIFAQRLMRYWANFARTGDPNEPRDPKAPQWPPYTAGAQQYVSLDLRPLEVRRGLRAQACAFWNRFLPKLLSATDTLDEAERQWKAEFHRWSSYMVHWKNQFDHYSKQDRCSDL
# Target: human recombinant AChE (Homo sapiens, UniProt P22303)
# Assay: biochemical
# Settings: read-out: Human AChE (% Inhibition at 10 μM)
compound,measurement,value
"CC[N+](C)(CC)CCC[n+]1c(-c2ccccc2)c2cc(N)ccc2c2ccc(N)cc21 [Propidium, propidium iodide, reference compound]",inhibition at 10 µM,52%
